Experimental data taken from patent US7241770B2 (priority 2003, dated 2007).

By UniProt entry, the sequences of proteins in these tests, tags left out. Where a name states a change or a piece, a line headed by the entry shows the natural chain unless it says otherwise.
UniProt P41146: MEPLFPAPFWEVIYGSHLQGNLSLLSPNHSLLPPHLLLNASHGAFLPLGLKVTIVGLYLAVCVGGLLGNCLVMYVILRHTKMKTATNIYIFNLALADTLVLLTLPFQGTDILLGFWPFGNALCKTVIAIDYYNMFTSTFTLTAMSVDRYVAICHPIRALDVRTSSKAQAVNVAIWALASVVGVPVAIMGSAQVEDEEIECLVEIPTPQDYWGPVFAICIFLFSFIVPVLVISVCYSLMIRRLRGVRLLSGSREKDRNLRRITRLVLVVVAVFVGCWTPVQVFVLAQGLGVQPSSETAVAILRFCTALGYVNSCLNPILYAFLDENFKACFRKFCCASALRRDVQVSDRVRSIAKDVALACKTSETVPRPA

Molecular target: ORL1 receptor (Homo sapiens, UniProt P41146)
Test: In vitro ORL1 receptor agonism, cAMP assay

Point of comparison: CNCCCCN1CN(c2ccccc2)C2(CCN(CCC3CCC4CC3C4(C)C)CC2)C1=O (stereo not shown) [Example 14], “In vitro agonism cAMP assay pEC50” value 9.9. Against it:
- CC1(C)C2CCC(CCN3CCC4(CC3)C(=O)NCN4c3ccccc3)C1C2 (stereo not shown) [Example 1, 8-[2-(6,6-Dimethyl-bicyclo[3.1.1]hept-2-yl)-ethyl]-1-phenyl-1,3,8-triaza-spiro[4.5]decan-4-one] — higher, 10.2
- CNCCCN1CN(c2ccccc2)C2(CCN(CCC3CCC4CC3C4(C)C)CC2)C1=O (stereo not shown) [Example 13, 8-[2-(6,6-Dimethyl-bicyclo[3.1.1]hept-2-yl)-ethyl]-3-(3-methylamino-propyl)-1-phenyl-1,3,8-triaza-spiro[4.5]decan-4-one] — lower, 8.7
- CN(CCCN1CN(c2ccccc2)C2(CCN(CCC3CCC4CC3C4(C)C)CC2)C1=O)CC1(O)CCNCC1 (stereo not shown) [Example 37, 8-[2-(6,6-Dimethyl-bicyclo[3.1.1]hept-2-yl)-ethyl]-3-{3-[(4-hydroxy-piperidin-4-ylmethyl)-methyl-amino]-propyl}-1-phenyl-1,3,8-triaza-spiro[4.5]decan-4-one] — higher, 10.6
